Patent publication US9365575B2, “Kinase inhibitors” (Allergan, Inc., priority 2012, dated 2016)

Amino acid sequences for entries named in this document (tags omitted). Residues count along the entry.
UniProt P35968, 786-1356: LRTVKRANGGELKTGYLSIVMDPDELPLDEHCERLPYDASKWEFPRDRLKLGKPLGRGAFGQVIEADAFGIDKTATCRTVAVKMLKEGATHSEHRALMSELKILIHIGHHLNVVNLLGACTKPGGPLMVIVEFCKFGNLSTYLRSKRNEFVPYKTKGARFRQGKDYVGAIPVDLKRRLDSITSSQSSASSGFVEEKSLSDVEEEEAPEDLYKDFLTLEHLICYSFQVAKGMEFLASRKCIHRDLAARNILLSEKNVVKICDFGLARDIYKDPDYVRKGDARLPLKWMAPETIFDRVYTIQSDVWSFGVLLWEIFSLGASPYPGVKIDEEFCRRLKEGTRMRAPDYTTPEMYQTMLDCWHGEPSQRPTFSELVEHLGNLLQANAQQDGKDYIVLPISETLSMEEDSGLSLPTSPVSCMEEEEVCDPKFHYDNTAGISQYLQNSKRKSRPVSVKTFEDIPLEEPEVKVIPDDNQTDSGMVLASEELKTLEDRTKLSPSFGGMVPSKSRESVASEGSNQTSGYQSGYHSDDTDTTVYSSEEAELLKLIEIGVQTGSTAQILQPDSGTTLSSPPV

Molecular target: VEGFR2 (Homo sapiens (Human), UniProt P35968)
Assay: VEGFR2 Kinase Assay (biochemical KDR kinase assay, poly-Glu-Tyr ELISA)
Conditions: purified cytoplasmic domain KDR protein, 2.7 μM ATP, 15 minute incubation at 30° C.; read-out: VEGFR2 Enzyme IC50
Description: Biochemical KDR kinase assays were performed in 96 well microtiter plates that were coated overnight with 75 μg/well of poly-Glu-Tyr (4:1) in 10 mM Phosphate Buffered Saline (PBS), pH 7.4. The coated plates were washed with 2 mLs per well PBS+0.05% Tween-20 (PBS-T), blocked by incubation with PBS containing 1% BSA, then washed with 2 mLs per well PBS-T prior to starting the reaction. Reactions were carried out in 100 μL reaction volumes containing 2.7 μM ATP in kinase buffer (50 mM Hepes buffer pH 7.4, 20 mM MgCl2, 0.1 mM MnCl2 and 0.2 mM Na3VO4). Test compounds were reconstituted in 100% DMSO and added to the reaction to give a final DMSO concentration of 5%. Reactions were initiated by the addition 20 ul per well of kinase buffer containing 200-300 ng purified cytoplasmic domain KDR protein (BPS Bioscience, San Diego, Calif.). Following a 15 minute incubation at 30° C., the reactions were washed 2 mLs per well PBS-T. 100 μl of a monoclonal anti-phosphotyrosine antibody-peroxidase conjugate diluted 1:10,000 in PBS-T was added to the wells for 30 minutes. […] The reaction was terminated by the addition of 100 μl of 2.5N H2SO4 to each well and read using a microplate ELISA reader set at 492 nm. IC50 values for compound inhibition were calculated directly from graphs of optical density (arbitrary units) versus compound concentration following subtraction of blank values.

## CC(C)NC(=O)Nc1ccc(C2CN=C3c4ccccc4NC(=O)N3C2)cc1 (stereo not shown) [Example 14, 1-Isopropyl-3-[4-(6-oxo-3,4,6,7-tetrahydro-2H-pyrimido[1,2-c]quinazolin-3-yl)phenyl]urea]
  pIC50: < 5.00

pIC50: −log10 of the molar value.
